US7718768B2, “Biologically active peptide [sequence]” (CMS Peptides Patent Holding Company Limited, priority 2001, dated 2010)

How the values were obtained:
NK cell = NK cell activity in mice with ascitic fluid type liver cancer H22; type: in vivo, BALB/c mice; conditions: 3 × 10^5 IU/kg i.p. once per day
Experimental: Healthy BALB/c mice were randomized into peptide group, rmIFN-γ group, rhIL-2 group, and saline group, 15 mice per group, and prepared into H22 carrying mice model as described in section Method 3. After implantation of the cancer cells, the test substances were administered for 15 days, the mice were killed by cervical dislocation. The spleen was isolated aseptically and manually dispersed in cold D-Hank's solution using an injection needle. The dispersed cell suspension was further sieved through a 100-gauge 150 μm diameter stainless steel sieve. After centrifugation at 200 g for 10 minutes, the supernatant was discarded. The cell pellet was re-suspended in 10 volume of Tris-NH4Cl buffer and then kept standing still for 10 minutes at room temperature. The suspended cells were collected by centrifugation at 150 g for 10 minutes. The cells were washed 2-4 times with cold D-Hank's solution by re-suspending and collecting by centrifugation with condition as described above. The washed cells were then diluted to the desired cell densities by RPMI-1640 culture medium, containing 10% fetal bovine serum.
Mice spleen cells were prepared to 4×10^6/ml as described in section 4.1 above. […]
Samples were centrifuged at 150 g for 10 minutes to collect the cells. […] An ELISA reader was used to obtain OD570nm of each well referenced at 630 nm. […]

L1210 leukemia = assay: survival of mice with transplanted L1210 leukemia; type: in vivo, DBA/2 mice; conditions: 3 × 10^5 IU/kg i.p. once per day
Experimental: Intraperitoneal injection, once per day. […] The cyclophosphamide groups were treated on the next day after transplanting the cancer cells. Treatment of all groups with testing substance lasted for 30 days or until the animal died unless otherwise specified.
Stock L1210 cells were incubated in DMEM/F12 medium supplemented with 10% fetal bovine serum, 37° C./5% CO2 for 72 hrs, then washed 3-4 times with Hank's solution, and adjusted to 1×10^5 cells per liter. 0.1 ml of the cell suspension was implanted into the abdominal cavity of several healthy DBA mice for 6-8 days. The mice were then killed by cervical vertebra dislocation and their ascitic fluid collected aseptically. The cell concentration of the collected ascitic fluid was adjusted to 1×10^5 per ml with Hank's solution. 0.1 ml of the cell suspension was implanted into each of the testing animal and the survival data of the animals recorded. Treatment started in the testing animals as described in section Method 1. Mean survival day was obtained by the Kaplan-meier method in the Survival option of the SPSS software. If the animal survived longer than the experiment, the survival days was entered as the duration of the experiment. The survival index was calculated according to the following formula: Survival index=(mean survival days of treatment group−mean survival days of control group)÷mean survival days of control group 6. […]

IL-2: recombinant human interleukin-2, Shanghai Huaxin Biotech Inc.; positive control immunostimulant
NK activity index (NK cell): 26.0 ± 9.0% | Survival days (L1210 leukemia): 32.0 ± 13.7 days | Survival index (L1210 leukemia; versus saline group): 92.3%
